Assay results from patent publication US4637999A, “Substituted cephalosporins as anti-inflammatory and antidegenerative agents” (Merck & Co., Inc., priority 1983, dated 1987).

Protein sequences, listed by entry. Tags and fused reporters are not part of them. Residues count along the entry.
UniProt P08246, 30-267 limits assumed: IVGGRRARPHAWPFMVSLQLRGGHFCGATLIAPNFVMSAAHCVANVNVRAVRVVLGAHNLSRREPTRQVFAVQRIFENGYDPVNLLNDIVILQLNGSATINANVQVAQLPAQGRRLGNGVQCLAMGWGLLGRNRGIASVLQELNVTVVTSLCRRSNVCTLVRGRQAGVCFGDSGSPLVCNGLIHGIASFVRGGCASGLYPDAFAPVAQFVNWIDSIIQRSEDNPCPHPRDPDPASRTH

Biological target: Human Polymorphonuclear Leukocyte Elastase (Homo sapiens, UniProt P08246)
Settings: read-out: ED50; 50% inhibition of enzyme activity 2 minutes after zero time; crude PMN extract, 0.2 mM Boc-AAPAN, pH 7.5, 410 mμ

`CC(=O)OCC1=C(C(=O)OC(C)(C)C)N2C(=O)[C@H](Cl)[C@H]2SC1` showed an IC50 of 1440 nM.
